NR1D1 modulator = modulates human Rev-erb alpha binding to DNA; 370,000 compounds, 0.79% hits; Rev-erbα–FITC-DNA binding, fluorescence polarization, 90 min; P20393; AID 1259318; activity, % at 10 µM;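 active = activity above about 14%, limit read from the data; passing the limit was not always enough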
PDI turbidity = PDI (human) enzyme inhibition; 350,000 compounds, 0.052% hits; PDI insulin aggregation turbidity, A650, 90 min; inhibition, % at 10 µM; P07237; AID 588391;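 active = mean inhibition across replicates of 30% or more, whatever share of single replicates reach that level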
UUG fidelity = alters start codon recognition fidelity in yeast. S. cerevisiae UUG-firefly luciferase reporter, luminescence/redox ratio. 350,000 tested, 0.13% active. activity score, % at 18.7 µM. AID 602363;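 active means replicate mean at a twofold rise or more, about +100% in these data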;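 further: firefly luciferase made from a UUG start codon reports start codon fidelity; reporter light over untreated wells divided by growth signal over untreated wells; some hits fall short of that in this replicate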
SMARCA2 activ = increases SMARCA2 function in MMTV reporter cells; MG213 cells, MMTV-luciferase reporter, dexamethasone, overnight; activation, % at 9.1 µM; 370,000 compounds, 1% hits; in the data active = activation above about 7.8%
ERp5 block = ERp5 (human) disulfide isomerase inhibition; inhibition, % at 9.99 µM; 350,000 compounds, 0.05% hits; ERp5 insulin aggregation, absorbance 650 nm, 90 min; AID 651711; Q15084;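 active = mean replicate inhibition above about 25%, with every replicate also reaching it, limit read from the data, passing the limit was not always enough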
GSIS activator = primary screen for activators of insulin secretion dependent on glucose, INS-1E cells, GLuc reporter luminescence | activation, % at 16.6 µM | 370,000 compounds, 0.61% hits | INS-1E GLuc reporter insulin secretion, 2-3 h;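 active = lowest replicate activation of at least 40%, so every replicate reaches that level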
SMARCA2 conf = confirmation of SMARCA2 (BRM) function activators. shares compounds with SMARCA2 activ. MG213 cells, MMTV-luciferase with dexamethasone, luminescence, overnight; MG213 cells expressing E1A, Rb sequestered; DMSO wells 0%, reference activator 100%. activation, % at 9.1 µM. 3,500 compounds, 30% hits. AID 652260;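 active = activation above its plate's cutoff, the mean activation of tested wells plus 3 SD, cut at about 7.9% in these data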
VP16 Luc act = GAL4-VP16 reporter activation counter-screen. shares compounds with SMARCA2 activ. HEK293 GAL4-VP16 pG5luc reporter, luciferase luminescence; scaled: DMSO wells 0%, SAHA wells 100%. activation, % at 9.1 µM. 3,500 compounds, 41% hits. AID 686939;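 active = activation above the solvent-only control well mean plus 3 SD, averaged across control plates, cut at about 5.2% in these data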
A number is an active result; 0 = inactive; - = not tested or not shown. Only some compounds are listed: those with a hit (about 2.1% of all), similar ones and a draw of the others.

SMILES	NR1D1 modulator	PDI turbidity	UUG fidelity	SMARCA2 activ	ERp5 block	GSIS activator	SMARCA2 conf	VP16 Luc act
Cc1cccc2c1ncc1c(=O)n(-c3ccccc3)[nH]c12	0	0	-	11.7	0	0	0	11.2
CC(SCc1cc(=O)n2c([nH]c3ccccc32)c1C#N)C(=O)O (stereo not drawn)	0	0	0	10.9	0	0	0	0
CCc1cc(=O)n2c([nH]c3ccccc32)c1C#N	0	0	0	0	-	0	-	-
C[C@@H]1CN([C@@H](C)CO)C(=O)c2cc(NC(=O)Cc3cn(C)c4ccccc34)ccc2O[C@H]1CN(C)C(=O)Nc1ccccc1	-	-	0	-	0	0	-	-
O=C(COC(=O)CCS(=O)(=O)c1ccccc1)Nc1cc(S(=O)(=O)N2CCCCC2)ccc1Cl	0	0	0	8.8	0	0	0	0
CN1CCN(c2ccc(NC(=O)CSc3ccccc3)cc2F)CC1	0	0	0	8.1	-	-	0	8.6
Cc1c(C)c2ccc(OCC(=O)Nc3ccccn3)cc2oc1=O	0	0	0	11.9	0	0	0	5.6
Cc1c(C)c2ccc(OCC(=O)NCc3ccccn3)cc2oc1=O	0	0	0	0	0	0	-	-
O=C(Nc1ccc2nn(-c3ccccc3)nc2c1)c1ccco1	0	0	0	0	-	-	-	-
O=C(Nc1cc2nn(-c3ccccc3)nc2cc1Cl)c1ccco1	0	0	0	8.8	-	-	21.0	11.0
C[C@@H]1CN([C@@H](C)CO)C(=O)c2ccccc2-c2ccccc2CO[C@H]1CN(C)S(=O)(=O)c1ccc(C#N)cc1	-	-	0	-	0	0	-	-
CC=Cc1ccc2n(c1=O)C[C@H]1[C@H](CO)[C@@H](C(=O)NC3CCC3)[C@@H]2N1C(=O)c1cnccn1 (mixture of isomers)	-	-	-	-	0	0	-	-
CCCCc1cc(=O)oc2c(CN(CC)CC)c(O)c(Cl)cc12	0	0	0	0	-	-	-	-
CCCc1cc(=O)oc2c(CN(CC)CC)c(O)c(Cl)cc12	0	0	0	9.4	0	0	0	0
C[C@@H]1CN([C@@H](C)CO)C(=O)c2cccc(NC(=O)Nc3cccc4ccccc34)c2O[C@H]1CN(C)CC1CC1	-	-	0	-	0	0	-	-
COc1ccc(CC(NC(C)=O)C(=O)NC2CCN(c3nc(C)cc(C)c3C#N)CC2)cc1OC (stereo not drawn)	0	0	-	15.1	0	0	0	0
COc1ccc(CC(NC(C)=O)C(=O)NC2CCN(c3nc(C)cc(C)c3C#N)CC2)cc1 (stereo not drawn)	0	0	-	0	0	0	-	-
CCOC(=O)CNC(=S)N1CCn2c(nc3ccccc32)C1	0	0	-	9.8	0	0	0	0
C[C@@H]1CN([C@H](C)CO)C(=O)c2cccc(NC(=O)CCCCCC(=O)Nc3ccccc3N)c2O[C@H]1CN(C)Cc1ccc2c(c1)OCO2	-	-	-	-	0	0	-	-
S=C1SCN(Cc2cccnc2)CN1Cc1cccnc1	0	0	-	12.1	-	-	0	0
S=C1SCN(Cc2ccccc2)CN1Cc1ccccc1	0	0	0	0	0	0	-	-
O=C(C[C@@H]1CC[C@H](NS(=O)(=O)c2ccccc2F)[C@H](CO)O1)NCCCN1CCOCC1	-	-	0	-	0	0	-	-
CN(C)CCN(C(=O)c1ccco1)c1nc2cc3c(cc2s1)OCCO3	0	0	0	9.7	0	0	0	0
CCc1ccc(/C=C2\Oc3ccc(C(=O)OC)cc3C2=O)cc1	0	0	-	10.1	-	0	0	6.5
COC(=O)c1ccc2c(c1)C(=O)/C(=C/c1ccc(C)cc1)O2	0	0	0	0	-	0	-	-
SMILES	NR1D1 modulator	PDI turbidity	UUG fidelity	SMARCA2 activ	ERp5 block	GSIS activator	SMARCA2 conf	VP16 Luc act
COc1cccc(CSc2nc3ccncc3[nH]2)c1	0	0	0	9.3	0	0	0	7.0
COc1cccc(CNC(=O)[C@@H]2CCCN2C(=O)[C@@H]2CCCN2S(=O)(=O)c2ccc(OC)c(C)c2)c1	0	-	-	9.1	0	0	0	0
CCC(=O)N[C@H]1CC[C@@H](CCn2cc(C3CC3)nn2)O[C@H]1CO	-	-	0	-	0	0	-	-
Cc1ccc(CN2CC(C(=O)Nc3cc(C)ccn3)CC2=O)cc1 (stereo not drawn)	0	0	0	10.5	0	0	17.2	6.3
Cc1ccc(CN2CC(C(=O)Nc3ccncc3)CC2=O)cc1 (stereo not drawn)	0	0	0	0	0	0	-	-
CC(CCc1ccccc1)NC(=O)CN1CCN(c2ccccc2)CC1 (stereo not drawn)	0	0	0	8.7	0	0	0	0
CC(CCc1ccccc1)NC(=O)C(=O)Nc1ccccc1 (stereo not drawn)	0	0	-	8.9	-	0	11.5	9.8
CN(C(=O)c1ccco1)c1nnc(-c2ccc(F)cc2)s1	0	0	0	0	0	0	-	-
CN(C(=O)c1ccco1)c1nc(-c2ccc(F)cc2)cs1	0	0	0	9.3	0	0	8.0	7.6
C[C@H](CO)N1C[C@H](C)[C@@H](CN(C)S(=O)(=O)c2cn(C)cn2)OCCCC[C@H](C)Oc2ccc(NC(=O)Nc3ccccc3)cc2C1=O	-	-	0	-	0	0	-	-
COC(=O)C[C@@H]1CC[C@@H]2[C@H](COc3ccc(NC(=O)Nc4cccc(C)c4)cc3C(=O)N2C)O1	-	-	0	-	0	0	-	-
COc1ccc(CCNCCC(=O)Nc2c(C)cc(C)cc2C)cc1OC	0	0	-	9.0	-	0	0	0
COc1ccccc1NS(=O)(=O)c1cc(NC(=O)c2[nH]c(C)c(C(C)=O)c2C)ccc1N1CCOCC1	0	0	-	9.9	0	0	10.5	6.0
COCCNC(=S)Nc1ccc(N2CCOCC2)c(S(=O)(=O)Nc2ccccc2OC)c1	0	0	0	15.9	0	0	0	0
O=c1/c(=C/c2ccc([N+](=O)[O-])cc2)sc2n1CCCN=2	0	0	0	8.7	-	-	11.5	12.6
COc1cc(/C=c2\sc3n(c2=O)CCCN=3)ccc1O	0	0	0	0	-	-	-	-
O=C(N[C@H]1CC[C@@H](CC(=O)N2CCOCC2)O[C@H]1CO)c1ccccn1	-	-	-	-	0	0	-	-
CCOc1cc(C2NN=C(c3ccccc3)S2)ccc1OCc1ccc(F)cc1 (stereo not drawn)	0	0	0	13.5	-	-	0	9.3
CCOc1cc(C2NN=C(c3ccccc3)S2)ccc1OCc1ccccc1Cl (stereo not drawn)	0	0	0	0	-	-	-	-
Cc1ccc(-c2nc(CN3CCCCC3)cc(CN3CCCCC3)c2O)cc1	0	0	-	8.2	0	0	0	0
CCNC(=O)C[C@@H]1CC[C@@H]2[C@@H](COc3ccc(NC(=O)Nc4cccc(OC)c4)cc3C(=O)N2C)O1	-	-	0	-	-	0	-	-
